Reference: US20020040062A1, “Protein kinase C activators and their use in decreasing expression of cell antigens” (The Trustees of Columbia University, priority 1993, published 2002)

What was measured:
Format in all cases: cell-based, human
[1] = test system: HLA Class I; test: Northern blotting, steady-state HLA Class I mRNA in T47D cells; conditions: 72 hr, 500 units/ml IFN-α or IFN-β, 50 units/ml IFN-γ, 0.1 μg/ml TPA or MEZ, densitometry
Method: (§1) FIG. 3: Effect of interferon, ADMB, TPA and MEZ, alone and in combination with H-7, on steady-state mRNA levels of HLA Class I antigens, HLA Class II-DRβ antigen, c-erbB-2, ICAM-1 and GAPDH in T47D human breast carcinoma cells. T47D cells were grown for 72 hr in the absence (control) or presence of 500 units/ml of IFN-α or IFN-β, 50 units/ml of IFN-γ, 0.1 μg/ml of TPA, MEZ or ADMB. Cultures were also grown in the presence of 0.1 μg/ml of H-7 for 72 hr with and without the additional compounds indicated above. […]
(§2) Steady-state levels of HLA Class I, HLA Class II-DRβ, c-erbB-2 and ICAM-I mRNA in control and treated T47D cells were determined by Northern blotting analysis of total cytoplasmic RNA probed with appropriate ^32P-labeled gene probes as previously described. […] Radioautograms were analyzed by densitometer to determine fold-change in mRNA expression as a result of treatment with the different antigenic modulating agents, with or without cocultivation with H-7.

[2] = test system: HLA Class II antigens; test: FACS analysis of HLA Class II antigen surface expression in T47D cells
Description: IgG1 murine monoclonal antibody Cu18 and Cu46 recognize two different epitopes of a highly restricted breast carcinoma associated glycoprotein of Mr 225,000 to 250,000 (BCA 225). This TAA is expressed intracytoplasmically and on the membrane of 94% of breast tumors tested and in the T47D human breast carcinoma cell line. BCA 225 is shed into the culture medium by T47D cells and into the sera of breast cancer patients. IgG2a monoclonal antibody L243 (anti HLA Class II-DR) recognizes a monomorphic HLA Class II-DR-α epitope (ATCC M355). Monoclonal antibody CL203.4 [40], which recognizes ICAM-I, was kindly provided by Dr. S. Ferrone, New York Medical College, NY. […]
T47D cells treated with the various compounds were analyzed by flow cytometry using appropriate monoclonal antibody concentrations as described previously. […] Cells were then washed 3× with PBS and analyzed on a FACStar (Beckon Dickinson, Mountain View, Calif.) or a Coulter Epics IV FACS (Coulter, Hialeah, Fla.). Results are expressed as mean fluorescence intensity (MFI) units which were determined as described previously. MFI=(mean channel fluorescence in fluorescence positive antibody-binding cells×% of fluorescence positive antibody-binding cells)−(mean channel fluorescence in unstained cells×% of fluorescence positive cells in the unstained population). […]

[3] = test system: HLA Class II-DRβ antigen mRNA; test: Northern blotting, steady-state HLA Class II-DRβ mRNA in T47D cells; conditions: 72 hr, 500 units/ml IFN-α or IFN-β, 50 units/ml IFN-γ, 0.1 μg/ml TPA, MEZ or ADMB, densitometry
Method: as §1, §2

IFN-α: recombinant human leukocyte interferon produced in Escherichia coli
increase in HLA class I antigen mRNA levels [1]: 1.9 fold
fold increase in HLA Class II expression ([2]; 500 units/ml IFN-α, IFN-β or IFN-γ as in Table 3): 4 fold
HLA Class II expression (MFI) ([2]; 500 units/ml of IFN-α, experiment of Table 3, control MFI 2,814): 11,660 MFI
increase in HLA Class II-DR antigen mRNA levels [3]: 1.1 fold
